Our source for the outcome values is PubChem BioAssay AID488922 (Johns Hopkins Ion Channel Center, 2010).

Sequences of proteins named here, by UniProt entry; tags and fusion partners are left off.
UniProt Q9NPC2, whole entry: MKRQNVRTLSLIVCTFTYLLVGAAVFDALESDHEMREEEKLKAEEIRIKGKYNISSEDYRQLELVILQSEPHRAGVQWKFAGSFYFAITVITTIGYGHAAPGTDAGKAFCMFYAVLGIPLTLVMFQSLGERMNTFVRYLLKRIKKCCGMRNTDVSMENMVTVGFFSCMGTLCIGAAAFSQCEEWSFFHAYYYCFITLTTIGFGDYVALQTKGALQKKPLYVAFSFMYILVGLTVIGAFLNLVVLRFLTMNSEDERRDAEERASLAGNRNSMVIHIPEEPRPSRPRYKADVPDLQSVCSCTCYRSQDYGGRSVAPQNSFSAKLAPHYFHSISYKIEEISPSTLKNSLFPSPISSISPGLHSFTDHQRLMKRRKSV

The list shows a part of the results, in another mix than the full data. Activity calls are given as the source filed them.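 Rule for the calls: active = ratio B-score over 3 SD below the library mean, with starting fluorescence within 5 SD of its mean; inactive = the rest, inconclusive results apart.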

The assay addresses Potassium channel subfamily K member 9 (Homo sapiens) (UniProt Q9NPC2). Kind of assay: KCNK9 potassium channel inhibitors, primary screen, HEK293 cells, thallium flux (AID 488922). As to conditions: HEK293 KCNK9, FluxOR thallium flux fluorescence; at 10 µM.
Take `COc1ccc(N/C(=N/P(=O)(N2CCOCC2)N2CCOCC2)N2CCOCC2)cc1`: the call was inactive.

Consider `COc1cc(I)ccc1[As](=O)(O)O`, for which the result was inactive.

Turning to `COc1ccc2nc(NP(=O)(c3ccccc3)c3ccccc3)sc2c1`, the result was inactive.

In the case of `Cc1c2c(nc3ccccc13)SC(C(Cl)Cl)C2` (centres undefined), the result was inactive.

As to `CCN(CC)CCCOC(=O)C(O)(c1ccccc1)c1ccccc1`, the molecule was classed as inactive.

Turning to `Cc1cc(=O)[nH]c(N[N+](=O)[O-])n1`, the molecule was called inactive.

On to `O=C(OC1CN2CCC1CC2)C12CC3CC(CC(C3)C1)C2` (centres undefined), for which the result was inactive.

For the molecule `O=[N+]([O-])c1cc([N+](=O)[O-])c(-c2ccn[nH]2)s1`, the molecule was classed as inactive.

Take `COc1ccc(OP(C)(=O)Nc2cccc(F)c2)cc1` (centres undefined): the result was inactive.

For `CCN(CC)C(=S)SC(NC=O)C(Cl)(Cl)Cl` (centres undefined), the molecule was called inactive.

As for `CC(C)NC(=O)NP(=O)(Oc1ccccc1)Oc1ccccc1`, the call was inactive.

On to `COc1ccccc1OP(C)(=O)Nc1cc(Cl)ccc1C` (centres undefined), for which the molecule was classed as inactive.

As for `Cc1cc(C)cc(OP(C)(N)=O)c1` (centres undefined), the molecule was called inactive.

Take `ClCCSc1nnc(-c2cccnc2)o1`: the molecule was classed as inactive.

For the molecule `CCOC(=O)c1ccc(NP(C)(=O)Oc2ccccc2)cc1` (centres undefined), the call was inactive.

`CC(C)c1ccc(OP(=O)(Nc2ccccn2)Oc2ccccc2F)cc1` (centres undefined): the call was inactive.

As for `Cc1ccc(NP(C)(=O)Oc2ccccc2)c(C)c1` (centres undefined), the result was inactive.

As to `COc1ccccc1OP(C)(=O)Nc1ccc(C)cc1` (centres undefined), the result was inactive.

Turning to `Cc1cccc(C)c1OP(C)(N)=O` (centres undefined), the result was inactive.

Consider `CC(C)(C)c1ccc(OP(C)(=O)Nc2ccc(SC(F)(F)F)cc2)cc1` (centres undefined), for which the result was inactive.

With `Cc1ccc(OP(=O)(Nc2ccc([N+](=O)[O-])cn2)Oc2ccc(C)cc2)cc1`, the molecule was called inactive.

Regarding `Cc1ccc2nc3c(c(C)c2c1)CC(C(Cl)Cl)S3` (centres undefined), the molecule was called inactive.

As to `O=[N+]([O-])c1ccc2c(c1)C=Nc1ccccc1O2`, the call was inactive.

As to `O=[N+]([O-])c1cc([N+](=O)[O-])c(Nc2cccnc2)c([N+](=O)[O-])c1`, the result was inactive.

`O=[As](O)(c1ccc(O)cc1)c1ccccc1O`: the outcome was inactive.

`C[As](=O)(O)c1cccc(C(=O)O)c1`: the call was inactive.

Consider `COc1ccccc1OP(C)(=O)Nc1ccccc1` (centres undefined), for which the result was inactive.

Consider `Cc1cc(SC(NC=O)C(Cl)(Cl)Cl)ncn1` (centres undefined), for which the call was inactive.

As to `O=P(Nc1ccccn1)(c1cccc2ccccc12)c1cccc2ccccc12`, the call was inactive.

Turning to `O=[N+]([O-])c1ccc(Nc2ccc(Oc3ccc([N+](=O)[O-])cc3[N+](=O)[O-])cc2)c([N+](=O)[O-])c1`, the molecule was classed as inactive.

For the molecule `CP(=O)(Nc1ccccc1Br)Oc1ccccc1` (centres undefined), the call was inactive.

For `CP(=S)(Nn1cnnc1)Oc1ccccc1` (centres undefined), the outcome was inactive.

As to `CCOC(=O)Nc1cccc([As](=O)(O)O)c1`, the molecule was called inactive.

In the case of `Cc1cc(SC(NC(=O)c2ccccc2)C(Cl)(Cl)Cl)nc(C(C)C)n1` (centres undefined), the molecule was classed as inactive.

In the case of `CCCCOc1ccc(C(=O)NCC2(N3CCCCC3)CCCCC2)cc1OC`, the outcome was inactive.

With `CCOC(=O)Nc1ccc([As](=O)(O)O)c(O)c1`, the result was inactive.

With `CCC(C)N(CC(C)C)C(=S)SC(NC(C)=O)C(Cl)(Cl)Cl` (centres undefined), the outcome was inactive.

As for `CP(=O)(Nc1ccccn1)Oc1ccc(Cl)cc1` (centres undefined), the result was inactive.

In the case of `O=C(OC1CN2CCC1CC2)c1cccc([N+](=O)[O-])c1` (centres undefined), the molecule was called inactive.

`CCOP(C)(=S)SCC(=O)NC(C)C(=O)O` (centres undefined): the molecule was called inactive.

For `O=[N+]([O-])c1cc([N+](=O)[O-])c(O)c([N+](=O)[O-])c1.c1ccc(Oc2ccncc2)cc1`, the outcome was inactive.

Regarding `CCOC(=O)c1ccc(NP(C)(=O)Oc2ccc(OC)cc2)cc1` (centres undefined), the molecule was classed as inactive.

Regarding `CCOC(=O)c1ccc(NC(=O)C(C)(CCl)SC)cc1` (centres undefined), the call was inactive.

As for `Cc1cc(C)cc(OP(C)(=O)Nc2ccc(SC(F)(F)F)cc2)c1` (centres undefined), the outcome was inactive.

Regarding `O=C(Nc1ccncc1[N+](=O)[O-])c1ccc([N+](=O)[O-])cc1[N+](=O)[O-]`, the result was inactive.

As to `CCc1ccc(OP(C)(=O)N2CCN(c3ccc([N+](=O)[O-])cc3)CC2)cc1` (centres undefined), the result was inactive.

With `CP(=O)(NC(=O)Nc1ccccc1)Oc1ccccc1` (centres undefined), the molecule was classed as inactive.

Regarding `O=C(COc1ccccc1)OC1CN2CCC1CC2` (centres undefined), the result was inactive.

On to `CP(=O)(Oc1ccccc1)OC(c1ccccc1)C(F)(F)F` (centres undefined), for which the result was inactive.

As to `CP(=O)(Nc1ccc(SC(F)(F)F)cc1)Oc1ccc(Cl)cc1` (centres undefined), the call was inactive.

As to `Cc1cccc(C)c1OP(C)(=O)Nc1ccc(SC(F)(F)F)cc1` (centres undefined), the molecule was classed as inactive.

Consider `COP1(=S)c2c(C)nn(CCC#N)c2N=C(c2ccc(F)cc2)N1C` (centres undefined), for which the call was inactive.

As for `CN(C(=O)Cc1ccc(Cl)c(Cl)c1)[C@@H]1CCCC[C@H]1N1CCCC1`, the molecule was called inactive.

On to `CC(C)/C=N\N=C(\N)N[N+](=O)[O-]`, for which the call was inactive.

Consider `CC1(CBr)Cn2c(nc3ccccc3c2=O)S1` (centres undefined), for which the outcome was inactive.

On to `O=[As](O)(c1ccccc1Br)c1ccccc1Br`, for which the result was inactive.

`O=[N+]([O-])c1cc([N+](=O)[O-])c(-c2cnn(-c3ccccc3)c2)c([N+](=O)[O-])c1`: the molecule was classed as inactive.

On to `COc1ccccc1CNC(=O)COC(=O)C(O)(c1ccccc1)c1ccccc1`, for which the molecule was called inactive.

Regarding `CC(C)(C)C(=O)NC(Sc1ncccn1)C(Cl)(Cl)Cl` (centres undefined), the call was inactive.

As to `Clc1n[nH]nc1-c1nn[nH][15n]1`, the outcome was inactive.

As for `CCOP(=O)(NC(=NC(C)c1ccccc1)NC(C)c1ccccc1)OCC` (centres undefined), the outcome was inactive.

For the molecule `O=[N+]([O-])c1cc([N+](=O)[O-])c(-n2nnc3ccccc32)c([N+](=O)[O-])c1`, the molecule was classed as inactive.

Turning to `CCC1=CC2Cc3nc4ccc(Cl)cc4c(N)c3C(C1)C2` (centres undefined), the call was inactive.

For `O=P1(Nc2ccccn2)COc2ccccc2OC1`, the outcome was inactive.

On to `CN(CCCl)Cc1cc(Cl)c(NC2=NCCN2)c(Cl)c1`, for which the result was inactive.

Take `CCOP(=O)(Nc1ccc(C)cn1)OCC`: the result was inactive.

Turning to `Nc1cccc([As](=O)(O)c2ccccc2)c1`, the molecule was called inactive.

As for `CP(=O)(Nc1ccc(SC(F)(F)F)cc1)Oc1ccccc1` (centres undefined), the result was inactive.

Turning to `CCCOc1ccc(NP(C)(=O)Oc2ccc(Cl)cc2)cc1` (centres undefined), the result was inactive.

Regarding `O=P1(Nc2ccc(Br)cn2)COc2ccccc2OC1`, the molecule was classed as inactive.

Regarding `O=[As](O)(c1cccs1)c1cccs1`, the result was inactive.

Regarding `Cc1ccc(OCC(=O)OC2CN3CCC2CC3)cc1` (centres undefined), the molecule was classed as inactive.

As for `O=P1(Nc2ncccn2)COc2ccccc2OC1`, the call was inactive.

For `CN1CCCCC1COC(=O)C1(O)c2ccccc2CCc2ccccc21` (centres undefined), the molecule was called inactive.

`COc1ccccc1OP(C)(=O)Nc1c(C)cccc1C` (centres undefined): the molecule was called inactive.

`CCOC(=O)C(CC)C1=NC(C)(C)Cc2ccccc21.O=[N+]([O-])c1cc([N+](=O)[O-])c(O)c([N+](=O)[O-])c1` (centres undefined): the molecule was classed as inactive.

In the case of `O=[N+]([O-])c1cc([N+](=O)[O-])c(Nc2nnnn2CCO)c([N+](=O)[O-])c1`, the call was inactive.

`CN(C)C1(CNC(=O)c2ccc(S(C)(=O)=O)cc2)CCCCC1`: the molecule was classed as inactive.

On to `O=C(/C=C/c1ccccc1)OC1CN2CCC1CC2` (centres undefined), for which the molecule was classed as inactive.

Regarding `Cc1ccc(C(=O)OC2CN3CCC2CC3)cc1` (centres undefined), the molecule was classed as inactive.

Consider `CC1CCC(C(C)C)C(OP(=O)(Nc2ccccn2)c2ccccc2)C1` (centres undefined), for which the call was inactive.

As for `Cc1nn(-c2ccccc2)c2c1P(=O)(N1CCOCC1)N(C)C(c1ccccc1)=N2` (centres undefined), the call was inactive.

Consider `COc1cc(C2NCCC3(OCCO3)C2(C)C)cc(OC)c1OC.O=[N+]([O-])c1cc([N+](=O)[O-])c(O)c([N+](=O)[O-])c1` (centres undefined), for which the outcome was inactive.

Turning to `CCOP1(=S)c2c(C)nn(CCC#N)c2N=C(c2ccc(F)cc2)N1C` (centres undefined), the call was inactive.

As for `CN(C(=O)Cc1ccccc1)[C@@H]1CC[C@]2(CCCO2)C[C@H]1N1CCCC1`, the result was inactive.

In the case of `N#CCCN(C(=O)COC(=O)C(O)(c1ccccc1)c1ccccc1)c1ccc(F)cc1`, the molecule was classed as inactive.

Regarding `CN(C(=O)Cc1ccc(Cl)c(Cl)c1)[C@H]1CC[C@@]2(CCCO2)C[C@@H]1N1CCCC1`, the result was inactive.

For `CC1=NCCc2c1[nH]c1ccccc21.O=[N+]([O-])c1cc([N+](=O)[O-])c(O)c([N+](=O)[O-])c1`, the molecule was called inactive.

Take `CN(C)C(=O)c1cc([N+](=O)[O-])cc2c1-c1c(cc([N+](=O)[O-])cc1[N+](=O)[O-])C2=O`: the outcome was inactive.

For `O=[N+]([O-])c1ccc2c(c1)nnn2O`, the molecule was classed as inactive.

As for `NC(=O)Nc1ccc([As](=O)(O)O)cc1`, the outcome was inactive.

As for `O=C(O)COc1ccc([As](=O)(O)O)cc1[N+](=O)[O-]`, the molecule was called inactive.

Consider `Nc1ccccc1[As](=O)(O)c1ccccc1`, for which the molecule was classed as inactive.

As for `O=P(Nc1nccs1)(Oc1ccccc1)Oc1ccccc1`, the molecule was called inactive.

Turning to `O=C(O)c1cccc(Nc2c([N+](=O)[O-])cc([N+](=O)[O-])cc2[N+](=O)[O-])c1`, the call was inactive.

Consider `CCOP1(=S)c2c(C)nn(CCC#N)c2N=C(c2ccccc2F)N1C` (centres undefined), for which the result was inactive.

Take `CS(=O)(=O)c1cc([N+](=O)[O-])c2no[n+]([O-])c2c1`: the call was inactive.

Regarding `CCOP(=O)(Nc1cccc2ccccc12)OCC`, the molecule was classed as inactive.

Take `Nc1cccc2c([As](=O)(O)O)cccc12`: the molecule was called inactive.

For the molecule `Cc1ccc(NCCc2c([N+](=O)[O-])cc([N+](=O)[O-])cc2[N+](=O)[O-])cc1`, the molecule was classed as inactive.

In the case of `CP(=O)(Nc1cccc(Br)c1)Oc1ccccc1` (centres undefined), the outcome was inactive.

On to `Cc1cc(C)cc(OP(C)(=O)Nc2ccccn2)c1` (centres undefined), for which the call was inactive.

In the case of `CCCOP(=S)(Nc1nc(N)cc(=O)[nH]1)OCCC`, the outcome was inactive.

Regarding `Cc1ccc(C)c(NP(C)(=O)Oc2ccccc2)c1` (centres undefined), the molecule was classed as inactive.

As for `Cc1cc(C)cc(OP(C)(=O)Nc2ccc(C)cc2C)c1` (centres undefined), the molecule was classed as inactive.

As for `O=[As](O)(c1cccc(O)c1)c1cccc(O)c1`, the outcome was inactive.

For `Cc1cccc(OCC(=O)OC2CN3CCC2CC3)c1` (centres undefined), the result was inactive.

Take `CCOC(=O)c1ccc(NP(C)(=O)Oc2cc(C)cc(C)c2)cc1` (centres undefined): the molecule was called inactive.

For the molecule `O=C(OC1CN2CCC1CC2)c1ccc(Cl)cc1` (centres undefined), the result was inactive.

For `CS(=O)(=O)c1ccc(Cl)c(NC(=O)COC(=O)C(O)(c2ccccc2)c2ccccc2)c1`, the result was inactive.

As for `COc1ccccc1OP(C)(=O)Nc1cccc(Br)c1` (centres undefined), the molecule was called inactive.

As to `COc1cc(C(=O)NCC2(N3CCOCC3)CCCCC2)cc(Cl)c1OC(C)C`, the outcome was inactive.

Consider `O=[As](O)(O)c1cccnc1`, for which the molecule was called inactive.

On to `CC(=O)Nc1ccc(Oc2c([N+](=O)[O-])cc([N+](=O)[O-])cc2[N+](=O)[O-])cc1`, for which the molecule was called inactive.
